From US20240239885A1, “ANTIBODY CONJUGATE COMPRISING ANTI-P-CADHERIN ANTIBODY AND USES THEREOF” (WUXI BIOLOGICS IRELAND LIMITED, priority 2021, published 2024)

The chains behind the UniProt entries cited, without tags or fusion partners. Residues count along the entry.
UniProt P22223, 108-829: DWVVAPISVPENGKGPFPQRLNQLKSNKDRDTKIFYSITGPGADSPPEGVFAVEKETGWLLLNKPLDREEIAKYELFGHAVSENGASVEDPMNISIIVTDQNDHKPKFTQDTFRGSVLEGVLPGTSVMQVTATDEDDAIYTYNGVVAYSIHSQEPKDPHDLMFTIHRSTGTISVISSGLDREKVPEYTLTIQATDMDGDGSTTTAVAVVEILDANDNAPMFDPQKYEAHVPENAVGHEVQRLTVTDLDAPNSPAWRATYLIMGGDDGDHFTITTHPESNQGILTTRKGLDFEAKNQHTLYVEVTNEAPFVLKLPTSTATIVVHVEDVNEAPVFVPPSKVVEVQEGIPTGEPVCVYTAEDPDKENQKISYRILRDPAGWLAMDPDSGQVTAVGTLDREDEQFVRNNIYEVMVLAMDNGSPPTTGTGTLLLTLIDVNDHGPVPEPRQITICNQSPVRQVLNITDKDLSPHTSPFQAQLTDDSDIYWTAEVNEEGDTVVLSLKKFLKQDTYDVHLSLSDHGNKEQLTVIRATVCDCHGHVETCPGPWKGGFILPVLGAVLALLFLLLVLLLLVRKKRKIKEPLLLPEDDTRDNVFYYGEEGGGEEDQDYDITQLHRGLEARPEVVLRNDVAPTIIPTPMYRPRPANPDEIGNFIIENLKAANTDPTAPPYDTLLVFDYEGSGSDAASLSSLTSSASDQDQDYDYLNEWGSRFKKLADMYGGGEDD

B1: W3195-1.53.1-p1-uIgG1L-MMAE (antibody, V domains shown)
VH: QVQLQESGPGLVKPSETLSLTCTVSGGSVISDNYYWTWVRQPPGKGLEFIGYIYYRGSTNYNPSLKNRVIISIDTSRNQFSLDLNSVTAADTAVYYCARDRRTGNSLPFDNWGQGTLVTVSS
VL: SYELTQPPSVSVSPGQTAQITCSGDKLGDKFASWYQQKSGQSPVVVIYQDNKRPSGFPERFSGSNSGNTATLTISGTQAMDEADYYCQAWDSSIVVFGGGTKLTVLG
modifications: MC-vc-PAB-MMAE conjugated to cysteine thiols after TCEP reduction (positions not stated); HIC-DAR 3.86 per antibody
notes: also called W3195-p1-MMAE; WBP3195-p1-ADC

What was measured:
[1] = test system: NCI-H1650 cells; experiment: Cytotoxicity assay of ADC (Cell Titer Glo) on NCI-H1650; details: read-out: IC50 (nM), ADC cytotoxicity; NCI-H1650, 5 days
[2] = target: T1, human P-cadherin expressed on cells (human, UniProt P22223 108-829); experiment: FACS on HCT-116 cells after 0 days in human serum at 37 C
T1 construct: whole, on cells; also called CDH3; Cadherin-3
Procedure: The antibody stability in human serum was tested by FACS. Briefly, human serum was freshly isolated by centrifuging the fresh blood twice at 4000 rpm for 10 minutes. […] As a control, antibodies serum mix was frozen immediately without 37° C. incubation. For the FACS analysis, the samples from different time points were free-thawed simultaneously at 4° C. […] The cells were washed twice with 1% BSA/1×PBS (Ca+/Mg+). Alexa647 conjugated Goat anti-human IgG Fc (Jackson, #109-605-098) 1:500 diluted in 1% BSA/1×PBS (Ca+/Mg+) were added to the cells and incubated at 4° C. for 30 minutes. Cells were washed twice in the same buffer and the mean fluorescence (MFI) of stained cells was measured using a FACS Canto II cytometer (BD Biosciences) and analyzed by FlowJo. Wells containing no antibody or secondary antibody only were used to establish background fluorescence. Four-parameter non-linear regression analysis was used to obtain EC50 values for cell binding using GraphPad Prism6 software.

| Molecule | IC50 [1] [nM] | EC50 [2] [nM] |
| --- | --- | --- |
| CC[C@H](C)[C@@H]([C@@H](CC(=O)N1CCC[C@H]1[C@H](OC)[C@@H](C)C(=O)N[C@H](C)[C@@H](O)c1ccccc1)OC)N(C)C(=O)[C@@H](NC(=O)[C@@H](NC)C(C)C)C(C)C [Free drug (MMAE), mono-methyl auristatin E] | 0.15 |  |
| B1 |  | 0.14 |
